Measured affinities in a library of Ab-14 light chain variants

All variants were tested on one target, the spike HR2 peptide PDVDLGDISGINAS (SARS-CoV-2).

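The starting antibody came from a phage panning campaign against this peptide. Library AAYL50 holds single substitutions and randomly drawn double and triple substitutions in the CDRs. In AlphaSeq, yeast of one mating type display the scFv and yeast of the other type display the target. Binding brings cells together so that they mate, and sequencing counts the barcode pairs among the diploids. Scores were corrected for input abundance and mapped to Kd with protein pairs of known affinity run in the same pool. Mating was done three times.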

Parent scFv Ab-14: VH joined to VL by the linker GGGGSGGGGSGGGGS. Changes lie in the light chain CDRs alone.
VH: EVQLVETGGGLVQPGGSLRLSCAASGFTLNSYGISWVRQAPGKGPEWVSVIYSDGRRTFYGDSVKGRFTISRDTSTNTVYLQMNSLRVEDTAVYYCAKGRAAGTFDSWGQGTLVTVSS
VL: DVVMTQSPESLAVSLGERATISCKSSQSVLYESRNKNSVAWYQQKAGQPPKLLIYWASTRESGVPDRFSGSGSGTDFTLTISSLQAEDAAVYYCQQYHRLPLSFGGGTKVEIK

Each variant is given by its three light chain CDRs, as the data file delimits them; those of the parent are KSSQSVLYESRNKNSVA, WASTRES, QQYHRLPLS. Every variant below is changed at E61 of the VL (sequential numbering). Values are apparent Kd, the geometric mean of the replicates that gave a signal; lower means stronger binding. "nd" marks a missing value. The strain was present, yet no cells mated with the target were sequenced in any replicate, which points to weak or no binding. Three control strains display no target. For library AAYL50, 18% of the pairings with them gave a signal, with a median of 15 µM and one signal in twenty below 970 nM, so weak values seen in few replicates may be background. For reference, the parent read 4.4 nM as the reference entry and 48 nM as a member of this library.

* KSSQSALYESRNKNSVA / WASTRAS / QQYHRLPLS -> 33 nM (3 of 3 replicates)
* KSSNSVLYESRNKNSVA / WASMRNS / QQYHRLPLS -> 11 nM (3 of 3 replicates)
* KSSQSVLYESRNINSVA / WASTRPS / QQYHRLCLS -> 7.7 µM (2 of 3 replicates)
* KSSQSVLYPSRNKNSVA / TASTRNS / QQYHRLPLS -> 16 nM (3 of 3 replicates)
* KSSQPVLYESRNKNSEA / WASTRLS / QQYHRLPLS -> 45 µM (2 of 3 replicates)
* KSSQSVFYESRNKNSVA / WASTCNS / QQYHRLPLS -> nd (0 of 3 replicates)
* KSSQSVLYESRNKGSVI / WASTRDS / QQYHRLPLS -> nd (0 of 3 replicates)
* KSSQSVLYESRGQNSVA / WASTRQS / QQYHRLPLS -> 4.0 nM (3 of 3 replicates)
* KSSQSVLYESRNKDSVA / WASTRVS / QQYHHLPLS -> 10 nM (3 of 3 replicates)
* KLSQSVLYEHRNKNSVA / WASTRYS / QQYHRLPLS -> 55 nM (3 of 3 replicates)
* KSSQSVLYISRNKNSVA / WMSTRNS / QQYHRLPLS -> nd (0 of 3 replicates)
* KSSQSVLYESRNNNCVA / WASTRTS / QQYHRLPLS -> 580 nM (3 of 3 replicates)
* HSSQSVLYESRNKNSVA / WASTRWS / QQYHRLRLS -> 320 nM (3 of 3 replicates)
* KSNQSVLAESRNKNSVA / WASTRCS / QQYHRLPLS -> 5.0 nM (3 of 3 replicates)
* KSSQSVLYESRNKNSVA / WASTRIS / QQYCSLPLS -> 94 nM (3 of 3 replicates)
* KSSQSVLYLSRNKNSVA / WASTRKS / QQYHQLPLS -> nd (0 of 3 replicates)
* RSSQSVLYESRNKNSVR / WASTRWS / QQYHRLPLS -> 400 µM (1 of 3 replicates)
* KSSQSVLYESRNKNSVA / PASTRYS / QQRHRLPLS -> nd (0 of 3 replicates)
* KSSQSVLYESRNKNSVE / WCSTRNS / QQYHRLPLS -> nd (0 of 3 replicates)
* KSSQSVLYESRNKNVVA / WASTRQS / QQYHRLPLS -> 35 µM (2 of 3 replicates)
* KSSQSVLYESRNKNSVA / NASVRPS / QQYHRLPLS -> 3.4 nM (3 of 3 replicates)
* KSSQSMLYESRNKNSVA / WASTRPS / QQYHRMPLS -> 12 nM (3 of 3 replicates)
* KSSQSVLYESRNINRVA / WASTRDS / QQYHRLPLS -> 12 µM (3 of 3 replicates)
* KSSQSVLYESRNKNSVA / KASTRAS / QQYHRLPLS -> 150 nM (3 of 3 replicates)
* PSSQSVLYESRNKNIVA / WASTRHS / QQYHRLPLS -> 3.1 µM (1 of 3 replicates)
* KSSQSVLYESRNKNSRA / WASPRHS / QQYHRLPLS -> 230 µM (1 of 3 replicates)
* KSSQSVLYESRNKNSVK / WASTRRS / QIYHRLPLS -> nd (0 of 3 replicates)
* KSSQSVLYESRFKWSVA / WASTRQS / QQYHRLPLS -> 960 nM (3 of 3 replicates)
* KSSKSVLYESRNKNSVA / WAVTRGS / QQYHRLPLS -> 2.5 µM (1 of 3 replicates)
* KSSQSVPYESRNKNSVV / WASTRSS / QQYHRLPLS -> nd (0 of 3 replicates)

Excerpt, the final 2 entries:

CDR-L1	CDR-L2	CDR-L3	apparent Kd	replicates with signal
KSSKSVLYESRNKNSVA	WAVTRGS	QQYHRLPLS	2.5 µM	1/3
KSSQSVPYESRNKNSVV	WASTRSS	QQYHRLPLS	nd	0/3

Data: MIT Lincoln Laboratory AlphaSeq set, Engelhart et al. 2022, doi:10.1038/s41597-022-01779-4, as distributed in FLAb.